Target: plasma derived AAT (alpha1-antitrypsin, human plasma-extracted), P01009

The chains behind the UniProt entries cited, without tags or fusion partners.
plasma derived AAT (alpha1-antitrypsin, human plasma-extracted), P01009, UniProt P01009, whole entry, looked up: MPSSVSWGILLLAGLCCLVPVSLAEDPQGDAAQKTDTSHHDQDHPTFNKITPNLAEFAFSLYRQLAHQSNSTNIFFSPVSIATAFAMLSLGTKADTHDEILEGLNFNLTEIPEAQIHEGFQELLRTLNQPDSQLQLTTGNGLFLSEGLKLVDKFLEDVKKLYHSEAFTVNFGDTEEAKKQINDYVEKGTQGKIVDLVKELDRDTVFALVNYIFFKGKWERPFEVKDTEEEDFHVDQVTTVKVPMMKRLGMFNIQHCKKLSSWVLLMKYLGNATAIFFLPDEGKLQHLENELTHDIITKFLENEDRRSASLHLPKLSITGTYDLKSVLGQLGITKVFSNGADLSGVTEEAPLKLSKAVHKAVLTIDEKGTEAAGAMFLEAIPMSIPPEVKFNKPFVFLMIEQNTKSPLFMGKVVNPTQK

B1: purified human neutrophil elastase (ELA2) (protein)
chain: IVGGRRARPHAWPFMVSLQLRGGHFCGATLIAPNFVMSAAHCVANVNVRAVRVVLGAHNLSRREPTRQVFAVQRIFENGYDPVNLLNDIVILQLNGSATINANVQVAQLPAQGRRLGNGVQCLAMGWGLLGRNRGIASVLQELNVTVVTSLCRRSNVCTLVRGRQAGVCFGDSGSPLVCNGLIHGIASFVRGGCASGLYPDAFAPVAQFVNWIDSIIQ
  neutrophil elastase protease activity, MeOSuc-AAPV-pNA substrate assay (Vmax, % of untreated); AAT at 1 nM and 10 nM: AAT and rhAAT inhibits neutrophil elastase protease activity

Reference: patent US20230302104
